Assay results taken from the Kinase Knowledgebase extract (Sharma et al. 2016).

Biological target: CDK2 (human) (UniProt P24941)
Assay: Enzyme Assay

## CCC1(c2ccc(N/C=C3\C(=O)Nc4ccc5ncsc5c43)cc2)CCC(=O)NC1=O (configuration not stated)
  IC50: 30 nM

## CC(=O)N(C)c1ccc(N/C=C2\C(=O)Nc3ccc4ncsc4c32)cc1
  IC50: 30 nM
